Reference: ChEMBL document CHEMBL2390918, “Cinnamides as selective small-molecule inhibitors of a cellular model of breast cancer stem cells” (Bioorg Med Chem Lett, 2013)

Chains of the proteins cited; added tags and fusions are not shown.
UniProt P41145, whole entry: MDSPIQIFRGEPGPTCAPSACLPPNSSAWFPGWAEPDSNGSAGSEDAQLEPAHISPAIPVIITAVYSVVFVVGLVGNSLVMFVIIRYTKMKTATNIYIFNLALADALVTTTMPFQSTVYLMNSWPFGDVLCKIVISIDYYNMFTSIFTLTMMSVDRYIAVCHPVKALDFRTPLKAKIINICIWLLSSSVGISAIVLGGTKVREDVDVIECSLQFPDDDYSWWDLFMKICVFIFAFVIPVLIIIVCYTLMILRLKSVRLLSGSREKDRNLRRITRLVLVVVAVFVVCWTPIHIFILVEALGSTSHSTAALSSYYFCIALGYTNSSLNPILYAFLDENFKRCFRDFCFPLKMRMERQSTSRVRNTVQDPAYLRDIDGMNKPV

Target: Kappa-type opioid receptor (Homo sapiens) (UniProt P41145)
Experiment: Displacement of [3H]Diprenorphine from human recombinant kappa opioid receptor expressed in HEK293 cells at 10 uM after 60 mins relative to control

## CN(C(=O)Cc1ccccc1)[C@H]1C[C@]2(CCCO2)CC[C@@H]1N1CCCC1
  inhibition: 11%
